One compound from patent publication US6635641B2 (Agouron Pharmaceuticals, Inc., priority 2000, dated 2003) can be followed below.

Amino acid sequences for entries named in this document (tags omitted). Chains listed by the source or under a name are the forms on record and can include a tag or linker.
UniProt P35968, with tags, fused parts or gaps DEL940-989/E990V limits assumed: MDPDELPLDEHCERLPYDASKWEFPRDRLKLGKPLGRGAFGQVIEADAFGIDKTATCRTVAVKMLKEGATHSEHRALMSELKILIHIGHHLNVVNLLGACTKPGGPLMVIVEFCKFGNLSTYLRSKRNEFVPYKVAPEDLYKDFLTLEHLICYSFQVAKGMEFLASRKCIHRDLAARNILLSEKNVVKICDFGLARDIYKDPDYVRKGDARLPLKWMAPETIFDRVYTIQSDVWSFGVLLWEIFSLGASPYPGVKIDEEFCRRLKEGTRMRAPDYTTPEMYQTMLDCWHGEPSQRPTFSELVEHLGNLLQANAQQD

The assay deals with T1, unphosphorylated VEGF-R2Δ50 (FLVK) (Homo sapiens, UniProt P35968, DEL940-989/E990V).
T1 construct: VEGF-R2Δ50 contains residues 806-939 and 990-1171; made in house; host or cells: baculovirus/insect cells
Kind of assay: VEGF-R2 coupled spectrophotometric assay, unphosphorylated construct (FLVK).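 Note: Baculovirus-expressed cytosolic kinase domain, ADP formation linked via pyruvate kinase and lactate dehydrogenase to NADH oxidation, read as falling absorbance at 340 nm.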 The class given is biochemical. Conditions: read-out: FLVK percent inhibition. The text has this: A construct (VEGF-R2Δ50) of the cytosolic domain of human vascular endothelial growth factor receptor 2 (VEGF-R2) lacking the 50 central residues of the 68 residues of the kinase insert domain was expressed in a baculovirus/insect cell system. Of the 1356 residues of full-length VEGF-R2, VEGF-R2Δ50 contains residues 806-939 and 990-1171, and also one point mutation (E990V) within the kinase insert domain relative to wild-type VEGF-R2. See commonly assigned, co-pending U.S. patent application Ser. No. 09/390,326, filed Sep. 7, 1999, incorporated by reference herein, for discussion of VEGF constructs and expression systems. […]
The production of ADP from ATP that accompanies phosphoryl transfer was coupled to oxidation of NADH using phosphoenolpyruvate (PEP) and a system having pyruvate kinase (PK) and lactic dehydrogenase (LDH). The oxidation of NADH was monitored by following the decrease of absorbance at 340 nm (e340=6.22 cm^−1 mM^−1) using a Beckman DU 650 spectrophotometer. […] Ki values were determined by measuring enzyme activity in the presence of varying concentrations of test compounds. The data were analyzed using Enzyme Kinetic and Kaleidagraph software.

One may read the inhibition as the percentage by which the read-out fell short of the control. Consider `Cc1cc(NC(=O)c2cccc(OCc3ccc(N)nc3)c2)ccc1C(C)C` [Example L-1, 3-(6-Aminopyridin-3-yl)methoxy-N-(4-Isopropyl-3-methyl-phenyl)-benzamide], for which the inhibition at 0.05 µM was 3%.
